# An excerpt weighted towards active compounds, which were near 16% of everything screened.
# TDP1 cell noCPT: qHTS for Inhibitors of human tyrosyl-DNA phosphodiesterase 1 (TDP1): qHTS in cells in absence of CPT; DT40 Tdp1-/- hTDP1 cells, no CPT, ATP luminescence, 48 h; hit rate 15% among 420,000; Potency, µM (top dose mostly 46.2 µM), for the others: at the highest dose activity change, negative = growth inhibition, usual class: inhibitors; further: potency means the concentration at half of the fitted maximal effect; on the % scale 0 is the no-effect control and ±100 the full control effect; nearly all actives have a fitted effect of over 55% in size
#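 Cells were dispensed at 400 per well, compounds added by pin tool, plates incubated ≥48 hr at 37 °C, then CellTiter-Glo added for 30 min at room temperature before luminescence reading. Line: DT40 Tdp1-/- complemented with hTDP1; camptothecin omitted.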
# uPA surface inh: blocks generation of uPA at the cell surface; cell surface uPA generation assay, qHTS; Potency, µM (doses to about 38.3 µM), without a hit: at the top dose activity change, negative = inhibition, hits mostly inhibitors; hit rate 0.31% among 330,000; active means well fitted inhibition curve with a large enough effect; inconclusive means small, poorly fitted or top-dose-only effect; inactive means no such curve, though single readings can be large or run the other way; tested in mouse RAW 264.7 cells; further: potency means the concentration at half of the fitted maximal effect; on the % scale 0 is the no-effect control and ±100 the full control effect; nearly all actives have a fitted effect of over 55% in size
# TDP1 block: inhibitors of human tyrosyl-DNA phosphodiesterase TDP1; recombinant TDP1, AlphaScreen DNA substrate cleavage; AID 485290; Potency, µM (top dose mostly 130 µM), without a hit: at the top dose activity change, negative = inhibition, actives largely listed as inhibitors; hit rate 0.28% among 350,000; Q9NUW8; further: potency means the concentration at half of the fitted maximal effect; on the % scale 0 is the no-effect control and ±100 the full control effect; nearly all actives have a fitted effect of over 40% in size
#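 E. coli-derived human Tdp1, 1 nM final. Cpd preinc 15 min RT; substrate 15 nM final, 5 min RT; AS bead mix 10 ug/ml final, 10 min RT. Signal loss = tyrosine-FITC cleavage. No-enzyme wells = max signal.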
# TDP1 cell CPT: growth inhibition of DT40 Tdp1-/-;hTDP1 cells with camptothecin (screen for TDP1 inhibitors) | chicken DT40 Tdp1-/-;hTDP1 cells + 20 nM CPT, ATP luminescence, 48 h | hit rate 12% among 420,000 | Potency, µM (titrated, usually from 46.2 µM), inactives show at the highest dose activity change, negative = growth inhibition, actives largely listed as inhibitors; further: potency means the concentration at half of the fitted maximal effect; on the % scale 0 is the no-effect control and ±100 the full control effect; nearly all actives have a fitted effect of over 55% in size
#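 Cell growth measured by CellTiter-Glo luminescence after a minimum 48 h, 37 C compound exposure with 20 nM CPT in Tdp1-knockout DT40 cells stably expressing hTDP1, seeded 400/well; qHTS titration format.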
# miR-21 reporter: miR-21 reporter, rising signal; Potency, µM (top dose mostly 38.3 µM), for the others: at the highest dose reporter change, positive = more light; 340,000 tested, under 10 active; HeLa miR-21 FLuc reporter, luciferase, 48 h; active = well fitted rising curve with a large enough effect; inconclusive = small, poorly fitted or top-dose-only effect; inactive = no such curve, though single readings can be large or run the other way;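 note: % of control where 0% means no effect; miR-21 action dims this reporter so a rising signal means less miR-21 action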
#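 HeLa miR-21-FLuc reporter line, endogenous miR-21; 2000 cells/well in DMEM/10% FBS; compound titration up to ~40uM final, 48 h, 37 degree Celsius; luciferase detection reagent, 15 min lysis, CCD luminescence.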
# Starred values were filed as active, the others as inactive; u = inconclusive; x = no result; [ ] = another dose, or the depositor's remark. Unless noted, the call rests on the fitted dose curve; in most records, active means well fitted curve in the direction sought with a large enough effect; inconclusive means small, poorly fitted or top-dose-only effect, or another doubt; inactive means no such curve, though single readings can be large; an effect the other way counts as inactive or inconclusive.
SMILES	TDP1 cell noCPT	uPA surface inh	TDP1 block	TDP1 cell CPT	miR-21 reporter
OCC#Cc1ncc(C(F)(F)F)cc1Cl	7.3µM*	-8%	0%	5.2µM*	-1%
COc1ccccc1N1CCN(C(=O)/C=C/c2c(Cl)nc3ccccn23)CC1	4.6µM*	1%	4%	10µM*	-7%
COc1ccc(OCc2nc3ccccc3n2Cc2ccc(C(C)(C)C)cc2)cc1	u	x	x	u	-41%
C[n+]1ccccc1COc1ccc(C(C)(C)C)cc1	2.3µM*	-9%	4%	2.1µM*	15%
COc1ccc(C(=O)C[n+]2ccc(Cl)c3ccc(Cl)cc32)cc1	7.9µM*	x	x	7.9µM*	x
COc1ccc(C(=O)c2ccc(Cl)cc2Cl)cc1	u	-3%	-12%	-27%	-3%
O=C(C[n+]1ccc(Cl)c2ccc(Cl)cc21)c1ccc(F)cc1	3.5µM*	x	x	10µM*	x
Cc1nn2c(C)nc3sc4c(c3c2nc1=O)CC(C)(C)OC4	-2%	x	3%	-7%	-1%
Cc1ccc(NC(=S)N(CCN(C)C)Cc2cc3cc(C)cc(C)c3[nH]c2=O)cc1	4.6µM*	3%	5%	u	-13%
Cc1ccc2cc(CN(CCN(C)C)C(=S)Nc3ccccc3)c(=O)[nH]c2c1C	21µM*	-13%	4%	u	0%
Cc1ccc(NC(=S)N(CCCN(C)C)Cc2cc3cc4c(cc3[nH]c2=O)OCO4)cc1	-5%	-1%	0%	2%	-10%
CCOCCCN(Cc1cc2cc(C)cc(C)c2[nH]c1=O)C(=O)N(CC)CC	16µM*	0%	5%	15µM*	-5%
CCN(CC)CCN(Cc1cc2cccc(C)c2[nH]c1=O)C(=S)Nc1ccccc1	u	1%	-3%	u	-1%
C=C(C)c1cccc(C(C)(C)NC(=O)N2CCCCC2CC)c1 (stereo unspecified)	u	4%	5%	u	0%
O=CNc1c(Cl)cc2c(c1Cl)Cc1cc([N+](=O)[O-])ccc1-2	12µM*	-7%	x	12µM*	x

# Structures shown so far with fluorine (2):
SMILES	TDP1 cell noCPT	uPA surface inh	TDP1 block	TDP1 cell CPT	miR-21 reporter
OCC#Cc1ncc(C(F)(F)F)cc1Cl	7.3µM*	-8%	0%	5.2µM*	-1%
O=C(C[n+]1ccc(Cl)c2ccc(Cl)cc21)c1ccc(F)cc1	3.5µM*	x	x	10µM*	x

# Additional results follow.
SMILES	TDP1 cell noCPT	uPA surface inh	TDP1 block	TDP1 cell CPT	miR-21 reporter
COc1ccc2c(c1)O[C@H](c1ccc3c(c1)OCO3)[C@@H](OC(=O)NCCOc1ccccc1)C2=O	x	x	9%	x	x
O=C(O)c1ccccc1[N+](=O)[O-]	x	x	3%	x	x
O=C(O)c1c[nH]c2c([N+](=O)[O-])cccc2c1=O	9.2µM*	2%	x	u	x
CC(C)(C)n1nnnc1C(c1ccccc1)N1CCN(c2ncccn2)CC1 (stereo unspecified)	-22%	x	x	1%	x
CC(C)C(c1nnnn1Cc1ccco1)N1CCN(c2cccc(Cl)c2)CC1 (stereo unspecified)	u	7%	4%	u	4%
CC(C)C(c1nnnn1C(C)(C)C)N1CCN(c2cccc(Cl)c2)CC1 (stereo unspecified)	13µM*	6%	2%	18µM*	9%
Cc1ccc(C)c(N2CCN(C(c3ccc(N(C)C)cc3)c3nnnn3C(C)(C)C)CC2)c1 (stereo unspecified)	u	8%	7%	u	-2%
CC(C)(C)n1nnnc1CN1CCN(C(c2ccccc2)c2ccccc2)CC1	18µM*	3%	0%	u	9%
CC(C)(C)n1nnnc1C(c1ccccc1)N1CCN(c2ncccc2C(F)(F)F)CC1 (stereo unspecified)	26µM*	x	x	18µM*	x
Cc1ccc(C)c(N2CCN(C(c3ccccc3)c3nnnn3C(C)(C)C)CC2)c1 (stereo unspecified)	18µM*	x	x	-80%	x
CC(CC(=O)OCC(=O)NC1CCS(=O)(=O)C1)c1ccccc1 (stereo unspecified)	1%	2%	0%	2%	x
CN1C(=O)c2ccccc2Sc2ccc(NC(=O)COc3ccc(F)cc3)cc21	7.3µM*	x	3%	16µM*	u
CN1C(=O)c2ccccc2Sc2ccc(NC(=O)COc3ccc(Cl)cc3)cc21	12µM*	x	7%	21µM*	u
CN1C(=O)c2ccccc2Sc2ccc(NC(=O)N3CCCC3)cc21	u	2%	0%	u	-9%
CN1CCN(C(=O)Nc2ccc3c(c2)N(C)C(=O)c2ccccc2S3)CC1	-24%	-1%	2%	-2%	-6%
O=C(CSc1nnc2c(n1)[nH]c1ccccc12)OCc1ccccc1	8%	1%	1%	-115%	-1%
CCC1CCCCN1CCCNC(=O)c1ccc2c(=O)n(Cc3ccc(OC)cc3)c(=O)[nH]c2c1 (stereo unspecified)	-16%	3%	0%	13%	-7%
CC(=O)N(Cc1ccc2c(c1)OCO2)Cc1cc2ccc(C)cc2nc1-c1cccc(C)c1	0.46µM*	x	x	u	x
Cc1ccc2cc3cc(C(=O)NCc4ccc5c(c4)OCO5)oc3nc2c1	-22%	4%	0%	-1%	1%
Cc1cccc(OCc2nc(-c3ccccn3)n[nH]2)c1	15µM*	-11%	5%	21µM*	-12%
Cc1cccc(OCc2n[nH]c(=S)n2-c2ccccc2)c1	8%	-18%	3%	-2%	4%
Cc1ccc(OCc2nc(-c3ccccn3)n[nH]2)cc1	4.6µM*	-6%	9%	3.3µM*	-25%
Cc1ccc(-n2c(COc3ccccc3)n[nH]c2=S)cc1	10%	2%	-2%	8%	2%
CC1CN(C(=S)NC(=O)C2CCCCC2)CC(C)O1 (stereo unspecified)	0%	10%	3%	-5%	-1%
Cc1cc(C)n(CC(=O)c2ccc(Cl)cc2)n1	8%	2%	0%	12%	4%
CCn1nc(C)cc1C(=O)Sc1cccc(Cl)c1	4.1µM*	0%	-1%	3.7µM*	0%
Cc1nn(C)c(C(=O)N/N=C/c2ccccn2)c1[N+](=O)[O-]	7%	-1%	3%	1%	1%
Cc1nn(C)c(C(=O)Sc2cccc(Cl)c2)c1[N+](=O)[O-]	2.9µM*	-1%	x	4.6µM*	0%
Cc1nn(C(C)C(=O)c2cccc(Cl)c2)c(C)c1[N+](=O)[O-] (stereo unspecified)	-2%	-7%	-3%	13%	-2%
Cc1nn(C)c(C(=O)Sc2ccccc2)c1[N+](=O)[O-]	23µM*	1%	x	u	3%

# Whole records, looked up by structure. Order of values: TDP1 cell noCPT, uPA surface inh, TDP1 block, TDP1 cell CPT, miR-21 reporter
# Cc1cccc(OCc2nc(-c3ccccn3)n[nH]2)c1 reads 15µM*, -11%, 5%, 21µM*, -12%
# Cc1nn(C)c(C(=O)Sc2cccc(Cl)c2)c1[N+](=O)[O-] reads 2.9µM*, -1%, x, 4.6µM*, 0%
# Cc1ccc(-n2c(COc3ccccc3)n[nH]c2=S)cc1 reads 10%, 2%, -2%, 8%, 2%
# CC(=O)N(Cc1ccc2c(c1)OCO2)Cc1cc2ccc(C)cc2nc1-c1cccc(C)c1 reads 0.46µM*, x, x, u, x

# The listing continues.
SMILES	TDP1 cell noCPT	uPA surface inh	TDP1 block	TDP1 cell CPT	miR-21 reporter
O=C(NCc1ccccn1)c1cnn(-c2nccc(-c3cc4ccccc4o3)n2)c1C1CC1	-29%	x	x	4%[9.04 µM]	x
CCOC(=O)c1sc(NC(=O)CSc2nncs2)c(C(=O)OCC)c1C	-23%	-1%	1%	u	-9%
COc1cc(C(=O)Nc2cc(C)c(O)c(-c3nc4ccccc4s3)c2)cc(OC)c1OC	-2%	x	5%	-8%	-4%
Cc1ccc(C(=O)NS(=O)(=O)c2ccc(C)cc2)cc1	-1%	18%	-7%	-16%	-1%

# Compound activity: PubChem BioAssay, National Center for Advancing Translational Sciences (NCATS)
